From patent US8916132B2, “Benzimidazole-derived compounds use as markers in the case of neurodegenerative diseases” (Servicios Cientificos Neuroinnovation Ltda, priority 2008, dated 2014) come the findings set out here.

The nature of the series: Partition coefficient octanol / pH 7.4 tampon. As to conditions: partition coefficient in relation to ability to cross the HEB. On the procedure:
The analyzed parameters were: specific permeability (Sp), this is an indicator of the compound's ability to cross the hematoencephalic barrier (HEB) by passive diffusion, and the partition coefficient (LogP), which corresponds to the partition coefficient of the compound between Octanol and the pH 7.4 phosphate tampon, which is a predictive element for the compound's penetration of the HEB.
Briefly, the partition coefficient (log Po/w) was determined in a pH 7.4 tampon solution, adjusted with 0.1 M sodium hydroxide. The organic phase utilized octanol saturated with the pH 7.4 tampon solution. A 1 mg/mL solution of the drug in methanol was prepared. Dilutions with concentrations ranging from 0.02 to 0.4 mg/mL were prepared from these solutions. Then […] portions were taken from each of these previously prepared stock solutions in 25 mL volumetric flasks, with the volume completed with the tampon pH 7.4. 25 ml of octanol where then measured and placed in three decantation funnels, with the previously prepared solutions added to each, mixing both phases by vigorous agitation during two minutes. […] Both phases are separated once equilibrium had been reached. The aqueous phase was centrifuged during 3 minutes to ensure complete separation of the phases. […] The quantification was carried out with a UVN spectrophotometer.

On to `Cc1c(OCC(F)(F)F)ccnc1C[S+]([O-])c1nc2ccccc2[nH]1` (stereo not shown) [Lansoprazole], for which the “CNS LogP” value is listed as “Favorable”.
